From BindingDB's records for doi:10.1111/cbdd.12810 (Korea Institute of Science and Technology, 2016)

Biological target: T1, Potassium channel subfamily K member 2 (Homo sapiens, UniProt O95069)
T1 sequence (O95069 whole entry): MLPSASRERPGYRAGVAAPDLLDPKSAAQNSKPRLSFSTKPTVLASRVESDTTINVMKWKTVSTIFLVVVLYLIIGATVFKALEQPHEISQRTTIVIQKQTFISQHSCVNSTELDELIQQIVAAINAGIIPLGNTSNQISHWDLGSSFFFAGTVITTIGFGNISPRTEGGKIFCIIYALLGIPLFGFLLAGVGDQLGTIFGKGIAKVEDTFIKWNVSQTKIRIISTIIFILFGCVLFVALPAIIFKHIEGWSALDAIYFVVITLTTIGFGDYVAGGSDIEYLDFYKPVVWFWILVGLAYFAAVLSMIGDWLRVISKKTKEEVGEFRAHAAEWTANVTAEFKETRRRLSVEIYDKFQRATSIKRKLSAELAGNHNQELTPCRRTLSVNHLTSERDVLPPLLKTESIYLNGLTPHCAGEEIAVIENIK
Assay: The hTREK1 stable cell lines were seeded at a density of 10 000 cells/well in a 12-well plate. Whole-cell membrane currents were amplified using the Axopatch 200A patch-clamp system. Currents were elicited by 1-second voltage ramps descending from +50 mV to -150 mV (from a holding potential of -70 mV). […] Data were sampled at 5 kHz and filtered at 2 kHz. Cell membrane capacitance was measured using the 'membrane test' protocolbuilt into pClampex. The bath solution contained (in mM) 150 NaCl, 10 HEPES, 3 KCl, 2 CaCl2, 2 MgCl2, and 5.5 glucose adjusted to pH 7.3 with NaOH. […] All experiments were performed at a room temperature of 20-22 °C. TREK1 currents were recorded in the presence of each 10 μm hit compounds. The block percentage of inhibitors was obtained by measuring the percentage of remaining current.

EC50: 2000 nM
Compound: OCCN1CCN(CCC=C2c3ccccc3Sc3ccc(C(F)(F)F)cc32)CC1 [CAS_53772-85-3]
